Measurements taken from PubChem BioAssay AID1347120 (National Center for Advancing Translational Sciences (NCATS), 2019).
Only a part is listed here, and it is no random draw. Inconclusive results are not listed. Active and inactive are the calls of the source. The call rests on the fitted dose curve; in most records, active means well fitted activation curve with a large enough effect; inconclusive means small, poorly fitted or top-dose-only effect; inactive means no such curve, though single readings can be large or run the other way.

Experiment: qHTS for Suppressors of FUS Proteinopathy: Primary screen using FUS-linked yeast assay;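 further: plate controls were DMSO vehicle for no effect and reference control for full effect; nearly all actives have a fitted effect of over 55% in size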
Settings: S. cerevisiae FUS-expressing, OD600, 24 h; at 76.6 µM (top of the series)
Description: Several widespread neurodegenerative diseases, including Alzheimer disease, Huntington disease, Frontotemporal Lobar Degeneration (FTLD) and Amyotrophic Lateral Sclerosis (ALS), share a common pathological feature, namely accumulation of specific protein aggregates in diseased tissue. These diseases which is associated with protein misfolding (proteinopathies) have become increasingly problematic as the population ages and life expectancies are extended. Most proteinopathies are currently incurable, a situation confounded by the fact that the basis of neurodegeneration is generally poorly understood. There exists urgent and significant need to find therapeutics that can inhibit the toxicity associated with protein aggregation. A novel approach to understand the underlying mechanisms of neurodegenerative diseases has recently emerged in which the disease conditions are modeled in the yeast (Saccharomyces cerevisiae), a tractable eukaryotic organism with conserved protein quality control mechanisms. Yeast offers quick and reliable genetic manipulations and can be easily tailored to high-throughput screening (HTS).
For this project, a yeast model of the FUS proteinopathies (a spectrum of neurodegenerative diseases that include ALS and a subtype of FTLD) was generated and employed. The cytoplasmic accumulation of the DNA/RNA-binding protein FUS (also known as TLS) is causative to both familial and sporadic forms of ALS and FTLD. This yeast model recapitulates neuronal pathology by showing severe cytotoxicity associated with cytoplasmic accumulation of FUS aggregates and a specific interaction between FUS and TDP-43, another ALS-associated protein. […] Specifically, the cellular accumulation of misfolded FUS that disrupts RNA homeostasis in both yeast and higher eukaryotes. This model was validated to be suitable for quantitative HTS (qHTS) use for finding genetic or chemical factors that restore growth. […] Identified compounds that inhibits FUS-yeast toxicity is flagged, re-acquired, and validated for further investigation and optimization.
NIH Chemical Genomics Center [NCGC]
NIH Molecular Libraries Probe Production Centers Network [MLPCN]
Assay Submitter (PI): Frank Shewmaker PhD, Uniformed Services University of the Health Sciences
Compound CP55940 was used as the positive control. Column 1 was treated with CP55940 titration from 92uM (final concentration, 1:2 dilution), while Column 2 was treated with top dose 92uM. Columns 3 and 4 were treated with DMSO only as negative control to assess background and noise signal.
Four hundred fifty microliter of cultured yeast (in 20mL rich medium) provided by Dr. Shewmaker lab was incubated at 30C at 99% humidity for 3hr. The culture was then spun down at 4000rpm for 5min and the cell pellet was resuspended in 2mL of Sdmin Media + ALU(330) + 2.5% Raffinose. One hundred microliter of the suspension was added to 900uL of water and OD of the solution was obtained. Twenty mL of responding medium (provided by Shewmaker lab) + 2.5% raffinose was added to ensure cell density of 0.1; the solution was incubated overnight. Working cell solution (FUS-yeast in Sdmi + Sdmi + 1X ALU + 2% galactose media) was prepared (final OD at 0.005) and 3uL was dispensed in a 1536-well Aurora high based clear bottom assay plates. Controls and library compounds (at various final concentrations from 40uM to 0.32uM) were added using a 1536-well pin array using the Kalypsys pin-tool. The plates were then incubated for 24hrs in a cell-culture incubator (30C; 99% humidity). Absorbance at 600nm was then read using the PerkinElmer ViewLux plate reader.

SMILES | growth rescue (activation)
CCCCn1nnnc1C(c1cccc(OC)c1OC)N1CCC(n2c(=O)[nH]c3ccccc32)CC1 (centres undefined) | inactive: 10.9%
CCc1cc(C(=O)NCC2(N3CCCCC3)CCCCC2)sc1C | inactive: 30.4%
O=C(O)c1cccc(Nc2c([N+](=O)[O-])cc([N+](=O)[O-])cc2[N+](=O)[O-])c1 | inactive: 14.2%
N/C(=N\O)c1c(N)no[n+]1[O-] | inactive: -27.4%
CCOC(=O)N1CCC(Nc2ccc(C)cc2)CC1 | inactive: 6.03%
COc1ccc(C(=O)NCC2(N3CCOCC3)CCCCC2)cc1OC | inactive: -17.2%
NC(=O)C1(Nc2ccccc2)CCN(Cc2ccccc2)CC1 | inactive: -17.2%
O=C(NCC1(N2CCOCC2)CCCCC1)c1cc(Br)ccc1Cl | inactive: -21.7%
CCCCn1nnnc1C(c1ccccc1)N1CCC(n2c(=O)[nH]c3ccccc32)CC1 (centres undefined) | inactive: 20.8%
COc1cc(C(=O)NCC2(N3CCOCC3)CCCCC2)cc(OC)c1C | inactive: -7.02%
c1ccc(CN2CCC(Nc3ccccc3)CC2)cc1 | inactive: 16.4%
O=C(NCC1(N2CCOCC2)CCCCC1)c1ccccc1 | inactive: -21.6%
CCCN1CCC(Nc2cc(OC)cc(OC)c2)CC1 | inactive: 31.2%
O=c1[nH]c2ccccc2n1C1CCN(C(c2ccccc2)c2nnnn2C2CCCC2)CC1 (centres undefined) | inactive: 9.07%
CN(C)C1(CNC(=O)c2cccc(C#N)c2)CCCCC1 | inactive: 10.4%
CCOC(=O)C(CC)C1=NC(C)(C)Cc2ccccc21.O=[N+]([O-])c1cc([N+](=O)[O-])c(O)c([N+](=O)[O-])c1 (centres undefined) | inactive: -22.7%
O=C(NCC1(N2CCOCC2)CCCCC1)c1ccc([N+](=O)[O-])cc1 | inactive: -16.5%
N#Cc1ccc(C(=O)NCC2(N3CCCCC3)CCCCC2)cc1 | inactive: 24.2%
O=C(NCC1(N2CCOCC2)CCCCC1)c1ccccc1[N+](=O)[O-] | inactive: -30.2%
CC(C)(C)c1ccc(C(=O)NCC2(N3CCOCC3)CCCCC2)cc1 | inactive: 0.849%
O=C(NCC1(N2CCCCC2)CCCCC1)c1ccco1 | inactive: 10.6%
CN(C)c1ccc(C(=O)NCC2(N3CCCCC3)CCCCC2)cc1 | inactive: 7.69%
Cc1ccccc1C(=O)NCC1(N(C)C)CCCCC1 | inactive: 1.04%
Cc1ccccc1NC1(C#N)CCN(Cc2ccccc2)CC1 | inactive: 15.9%
CCN1CCC(Nc2cccc(F)c2)CC1 | inactive: 9.91%
COc1ccc(C(c2nnnn2C2CCCCC2)N2CCC(n3c(=O)[nH]c4ccccc43)CC2)cc1 (centres undefined) | inactive: -19%
Cc1ccc(NC2(C#N)CCN(Cc3ccccc3)CC2)cc1 | inactive: -22.2%

SMILES | growth rescue (activation)
Cc1ccc(C(=O)NCC2(N3CCCCC3)CCCCC2)o1 | inactive: 3.39%
Cc1ccc(Nc2c([N+](=O)[O-])cc([N+](=O)[O-])cc2[N+](=O)[O-])cc1 | inactive: -19.8%
Fc1ccccc1NC1CCN(Cc2ccccc2)CC1 | inactive: 1.11%
O=c1[nH]c2ccccc2n1C1CCN(C(c2ccnc3ccccc23)c2nnnn2C2CCCCC2)CC1 (centres undefined) | inactive: -17.1%
COc1cc(OC)cc(C(=O)NCC2(N3CCCCC3)CCCCC2)c1 | inactive: -0.167%
CC(=O)N(c1ccccc1)C1CCNCC1 | inactive: -17.9%
CN(C)C1(CNC(=O)c2ccc(C(C)(C)C)cc2)CCCCC1 | inactive: 3.2%
CCC(c1nnnn1C1CCCCC1)N1CCC(n2c(=O)[nH]c3ccccc32)CC1 (centres undefined) | inactive: 15.5%
CN1CCC(Nc2ccc(Cl)cc2)CC1 | inactive: -1.43%
CCC(CO)(C(=O)OC1CN2CCC1CC2)c1ccccc1 (centres undefined) | inactive: -36.8%
COc1cc(OC)cc(C(=O)NCC2(N3CCOCC3)CCCCC2)c1 | inactive: 0.0571%
COc1cccc(C(c2nnnn2C2CCCC2)N2CCC(n3c(=O)[nH]c4ccccc43)CC2)c1OC (centres undefined) | inactive: 38.2%
COc1cc(C(=O)NCC2(N3CCOCC3)CCCCC2)cc(OC)c1OC | inactive: -11.1%
COc1cccc(C(=O)N(c2cc(C)cc(C)c2)C2CCN(C(=O)OC(C)(C)C)CC2)c1 | inactive: 26.1%
CCCOc1ccc(C(=O)NCC2(N(C)C)CCCCC2)cc1 | inactive: 23.3%
CC(C)(C)OC(=O)N1CCC(Nc2ccccc2)CC1 | inactive: 27.5%
O=C(O)C1(Nc2ccccc2)CCN(Cc2ccccc2)CC1 | inactive: -28.1%
NN(c1ccccc1)C1CCN(CCc2ccccc2)CC1 | inactive: -3.79%
CN1CCC(Nc2ccc(F)c(Cl)c2)CC1 | inactive: 6.79%
CCOC(=O)N1CCC(Nc2ccc(OC)cc2)CC1 | inactive: -32.9%
O=c1[nH]c2ccccc2n1C1CCN(C(c2cc3ccccc3o2)c2nnnn2C2CCCCC2)CC1 (centres undefined) | inactive: 24.6%
N#CC1(Nc2ccccc2)CCN(Cc2ccccc2)CC1 | inactive: 0.194%
O=C1C(O)=C([N+](=O)[O-])C(=O)C(O)=C1[N+](=O)[O-] | inactive: -15%
O=C(NCC1(N2CCOCC2)CCCCC1)c1cc2ccccc2o1 | inactive: 10.4%
O=c1[nH]c2ccccc2n1C1CCN(C(c2ccccc2OC(F)(F)F)c2nnnn2C2CCCCC2)CC1 (centres undefined) | inactive: 13.2%
O=C(NCC1(N2CCCCC2)CCCCC1)c1ccc(Cl)nc1 | inactive: 12.7%
CSc1ccccc1C(=O)NCC1(N2CCCCC2)CCCCC1 | inactive: 10.4%
